Drawing on PubChem BioAssay AID463075 (University of Pittsburgh Molecular Library Screening Center, 2010), this text covers activation (protection from cell death) for 103 compounds.

SMILES strings stand for the structures. The list shows a part of the results, in another mix than the full data. Activity calls are given as the source filed them.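 Rule for the calls: active = activation, meaning protection from cell death, of at least 50% relative to plate controls; inactive = activation below 50%.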

This assay can be described thus: rescue of FADD-deficient Jurkat cells from TNF-alpha death – single concentration, primary screen (AID 463075).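 Note: necroptosis triggered by 40 ng/mL TNF-alpha added together with compound.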 As to conditions: Jurkat FADD-/- TNF necroptosis rescue, ATP luminescence, 24 h; at 10 µM; active compounds read high; 0 = TNF only, 100 = no-TNF cells.
With `O=C(COc1ccccc1)OC1CN2CCC1CC2` (stereo not drawn), the activation (protection from cell death) is inactive: 0.842%.
Under `COP1(=S)c2c(C)nn(CCC#N)c2N=C(c2ccc(F)cc2)N1C` (stereo not drawn) stands inactive: -0.551%; under `CCC(C)N(CC(C)C)C(=S)SC(NC(C)=O)C(Cl)(Cl)Cl` (stereo not drawn), inactive: -1.64%.
For `CCOC(=O)c1ccc(NC(=O)C(C)(CCl)SC)cc1` (stereo not drawn), the activation (protection from cell death) was inactive: 2.12%.
The same measure for `Cc1cc(SC(NC(=O)c2ccccc2)C(Cl)(Cl)Cl)nc(C(C)C)n1` (stereo not drawn): inactive: 0.785%; for `CCOC(=O)Nc1ccc([As](=O)(O)O)c(O)c1`: inactive: 0.597%.
Under `O=[N+]([O-])c1ccc(Nc2ccc(Oc3ccc([N+](=O)[O-])cc3[N+](=O)[O-])cc2)c([N+](=O)[O-])c1` stands inactive: -6.58%; under `Cc1cc(SC(NC=O)C(Cl)(Cl)Cl)ncn1` (stereo not drawn), inactive: -1.56%; under `O=P(Nc1ccccn1)(c1cccc2ccccc12)c1cccc2ccccc12`, inactive: -2.19%.
Take `CCOC(=O)Nc1cccc([As](=O)(O)O)c1`: the activation (protection from cell death) is inactive: 0.855%.
The same measure for `Cc1ccc2nc3c(c(C)c2c1)CC(C(Cl)Cl)S3` (stereo not drawn): inactive: 2.18%; for `Cc1ccc(OP(=O)(Nc2ccc([N+](=O)[O-])cn2)Oc2ccc(C)cc2)cc1`: inactive: -0.123%; for `O=[As](O)(c1ccc(O)cc1)c1ccccc1O`: inactive: 0.805%.
The same measure for `C[As](=O)(O)c1cccc(C(=O)O)c1`: inactive: 1.61%; for `O=[N+]([O-])c1cc([N+](=O)[O-])c(-c2ccn[nH]2)s1`: inactive: -7.87%; for `CC(C)NC(=O)NP(=O)(Oc1ccccc1)Oc1ccccc1`: inactive: 3.36%.
Consider `CCN(CC)C(=S)SC(NC=O)C(Cl)(Cl)Cl` (stereo not drawn), for which the activation (protection from cell death) was inactive: -10.2%.
Turning to `CC(C)c1ccc(OP(=O)(Nc2ccccn2)Oc2ccccc2F)cc1` (stereo not drawn), the activation (protection from cell death) was inactive: -2.11%.
On to `ClCCSc1nnc(-c2cccnc2)o1`, for which the activation (protection from cell death) is inactive: -1.61%.
Under `COc1cc(I)ccc1[As](=O)(O)O` stands inactive: -0.397%; under `COc1ccc2nc(NP(=O)(c3ccccc3)c3ccccc3)sc2c1`, inactive: 2.51%.
In the case of `Cc1cc(=O)[nH]c(N[N+](=O)[O-])n1`, the activation (protection from cell death) is inactive: 1.18%.
The same measure for `O=C(OC1CN2CCC1CC2)C12CC3CC(CC(C3)C1)C2` (stereo not drawn): inactive: 1.16%.
On to `Cc1c2c(nc3ccccc13)SC(C(Cl)Cl)C2` (stereo not drawn), for which the activation (protection from cell death) is inactive: 2.54%.
Under `COc1ccc(N/C(=N/P(=O)(N2CCOCC2)N2CCOCC2)N2CCOCC2)cc1` stands inactive: 0.921%; under `Cc1cccc(OCC(=O)OC2CN3CCC2CC3)c1` (stereo not drawn), inactive: 0.928%; under `O=[As](O)(c1cccc(O)c1)c1cccc(O)c1`, inactive: 0.0347%.
For the compound `O=[As](O)(O)c1cccnc1`, the activation (protection from cell death) is inactive: 1.28%.
Take `O=C(OC1CN2CCC1CC2)c1ccc(Cl)cc1` (stereo not drawn): the activation (protection from cell death) is inactive: 2.99%.
As to `CCOP(=O)(Nc1cccc2ccccc12)OCC`, the activation (protection from cell death) was inactive: -0.687%.
Under `COc1cc(C2NCCC3(OCCO3)C2(C)C)cc(OC)c1OC` (stereo not drawn) stands inactive: 1.44%.
The same measure for `CCCOP(=S)(Nc1nc(N)cc(=O)[nH]1)OCCC`: inactive: 1.59%; for `Cc1ccc(NCCc2c([N+](=O)[O-])cc([N+](=O)[O-])cc2[N+](=O)[O-])cc1`: inactive: -4.46%.
The same measure for `Nc1cccc2c([As](=O)(O)O)cccc12`: inactive: 3.95%; for `O=C(O)COc1ccc([As](=O)(O)O)cc1[N+](=O)[O-]`: inactive: 1.04%.
Regarding `Nc1ccccc1[As](=O)(O)c1ccccc1`, the activation (protection from cell death) was inactive: 1.1%.
Regarding `CS(=O)(=O)c1cc([N+](=O)[O-])c2no[n+]([O-])c2c1`, the activation (protection from cell death) was inactive: -0.989%.
For the compound `O=P(Nc1nccs1)(Oc1ccccc1)Oc1ccccc1`, the activation (protection from cell death) was inactive: 0.0939%.
Turning to `O=P(Nc1nccs1)(c1ccccc1)c1nc2ccccc2s1` (stereo not drawn), the activation (protection from cell death) is inactive: 2.27%.
The same measure for `CCOP1(=S)c2c(C)nn(CCC#N)c2N=C(c2ccccc2F)N1C` (stereo not drawn): inactive: -1.66%; for `O=[N+]([O-])c1ccc2c(c1)nnn2O`: inactive: -0.0579%.
The same measure for `CN(C(=O)Cc1ccccc1)[C@@H]1CC[C@]2(CCCO2)C[C@H]1N1CCCC1`: inactive: 0.79%; for `CCOP1(=S)c2c(C)nn(CCC#N)c2N=C(c2ccc(F)cc2)N1C` (stereo not drawn): inactive: -2.1%.
Under `NC(=O)Nc1ccc([As](=O)(O)O)cc1` stands inactive: 1.02%; under `O=C(/C=C/c1ccccc1)OC1CN2CCC1CC2` (stereo not drawn), inactive: 4.64%; under `CC1CCC(C(C)C)C(OP(=O)(Nc2ccccn2)c2ccccc2)C1` (stereo not drawn), inactive: -1.58%.
With `Cc1nn(-c2ccccc2)c2c1P(=O)(N1CCOCC1)N(C)C(c1ccccc1)=N2` (stereo not drawn), the activation (protection from cell death) was inactive: -1.59%.
Regarding `Cc1ccc(OCC(=O)OC2CN3CCC2CC3)cc1` (stereo not drawn), the activation (protection from cell death) is inactive: -0.621%.
`O=[As](O)(c1cccs1)c1cccs1`: the activation (protection from cell death) was inactive: 0.696%.
The same measure for `O=P1(Nc2ccc(Br)cn2)COc2ccccc2OC1`: inactive: 1.52%; for `Nc1cccc([As](=O)(O)c2ccccc2)c1`: inactive: 0.135%.
The same measure for `O=P1(Nc2ncccn2)COc2ccccc2OC1`: inactive: 0.741%; for `CC(C)(C)C(=O)NC(Sc1ncccn1)C(Cl)(Cl)Cl` (stereo not drawn): inactive: -1.19%.
Under `Clc1n[nH]nc1-c1nn[nH][15n]1` stands inactive: 0.353%; under `CCOP(=O)(Nc1ccc(C)cn1)OCC`, inactive: 1.98%.
With `O=P1(Nc2ccccn2)COc2ccccc2OC1`, the activation (protection from cell death) was inactive: -0.454%.
On to `CC1(CBr)Cn2c(nc3ccccc3c2=O)S1` (stereo not drawn), for which the activation (protection from cell death) was inactive: -3.47%.
Consider `O=[As](O)(c1ccccc1Br)c1ccccc1Br`, for which the activation (protection from cell death) is inactive: 1.88%.
In the case of `CC(C)/C=N\N=C(\N)N[N+](=O)[O-]`, the activation (protection from cell death) was inactive: -0.231%.
The same measure for `c1nnnn1CCn1cnnn1`: inactive: -2.88%; for `O=P(Nc1nccs1)(c1ccccc1)c1ccccc1`: inactive: -1.03%.
The same measure for `CC(C)C(=O)NC(Sc1ccccc1)C(Cl)(Cl)Cl` (stereo not drawn): inactive: 0.837%; for `C[C@H]1OP(=O)(Oc2ccccc2)[C@H](O)[C@H](O)[C@H]1N=[N+]=[N-]` (stereo partly drawn): inactive: -1.16%.
For the compound `O=P(Nc1nc2ccccc2s1)(c1ccccc1)c1ccccc1`, the activation (protection from cell death) was inactive: -0.596%.
Take `O=P(Nc1ccccn1)(c1ccc(Br)cc1)c1ccc(Br)cc1`: the activation (protection from cell death) is inactive: 1.15%.
As to `C(Cc1nn[nH]n1)Cc1nn[nH]n1`, the activation (protection from cell death) is inactive: 1.27%.
Under `Nc1ccc([As](=O)(O)c2ccc([N+](=O)[O-])cc2)cc1` stands inactive: 4.28%.
Under `O=C(OC1CN2CCC1CC2)c1cccc(Cl)c1` (stereo not drawn) stands inactive: 0.686%; under `CC(=O)NC(SC(=S)N(C)C)C(Cl)(Cl)Cl` (stereo not drawn), inactive: -21.4%.
Under `O=[N+]([O-])c1ncn(CCn2cnc([N+](=O)[O-])n2)n1` stands inactive: 1.63%.
`O=[As](O)(c1ccccc1)c1ccc(O)cc1`: the activation (protection from cell death) was inactive: -0.801%.
`O=C(NC1CCS(=O)(=O)C1)NP(=S)(Oc1ccccc1)Oc1ccccc1` (stereo not drawn): the activation (protection from cell death) was inactive: -1.54%.
With `CCNC(=S)/N=C(\N)N[N+](=O)[O-]`, the activation (protection from cell death) was inactive: 0.463%.
The same measure for `Cc1ccc(NP(=O)(Oc2cccc(C)c2)Oc2cccc(C)c2)nc1`: inactive: -0.286%.
Under `CCOC(=O)NC(Sc1ccccc1)C(Cl)(Cl)Cl` (stereo not drawn) stands inactive: -11%.
For `c1ccc(-c2nn[nH]n2)c(-c2nn[nH]n2)c1`, the activation (protection from cell death) is inactive: 0.654%.
Consider `O=c1c2cc([N+](=O)[O-])ccc2[nH]c2c([N+](=O)[O-])cc([N+](=O)[O-])cc12`, for which the activation (protection from cell death) was inactive: -8.52%.
As for `CN(C)C(=O)Oc1noc2ccccc12`, the activation (protection from cell death) was inactive: 1.04%.
As to `Cc1ccccc1OP(=O)(Nc1ccccn1)Oc1ccccc1C`, the activation (protection from cell death) was inactive: -9.95%.
Under `CC(=O)NC(SC(=S)N(CC(C)C)CC(C)C)C(Cl)(Cl)Cl` (stereo not drawn) stands inactive: 4.51%; under `Cc1ccc(OP(=O)(Nc2ccccn2)Oc2ccc(C)cc2)cc1`, inactive: 0.291%; under `COC(=O)c1cc2c(s1)N=C(c1ccccc1)N(C)P2(=O)N1CCOCC1` (stereo not drawn), inactive: 0.149%.
Under `CCC(=O)N1C2C3N(C(=O)CC)C1C1N(C(=O)CC)C(C(N1C(=O)CC)N3C(=O)CC)N2C(=O)CC` stands inactive: -0.974%; under `CC(C)(C)C(=O)NC(Sc1ccccc1)C(Cl)(Cl)Cl` (stereo not drawn), inactive: -0.362%.
As to `CCOc1ccc(C2=NCC(CBr)S2)cc1` (stereo not drawn), the activation (protection from cell death) was inactive: -9.48%.
The same measure for `O=P1(Nc2nc3ccc(Cl)cc3s2)COc2ccccc2O1` (stereo not drawn): inactive: -0.973%; for `CC(=O)Nc1ccc(Oc2c([N+](=O)[O-])cc([N+](=O)[O-])cc2[N+](=O)[O-])cc1`: inactive: 0.271%; for `CC(=O)Nc1ccc([As](=O)(O)O)c(O)c1`: inactive: 3.85%.
Take `C[C@H]1OP(=O)(Oc2ccccc2)C[C@@H]2O[C@@H]21` (stereo partly drawn): the activation (protection from cell death) is inactive: -1.1%.
`C[C@@H]1C=CCP(=O)(Oc2ccccc2)O1` (stereo partly drawn): the activation (protection from cell death) was inactive: -0.633%.
Take `Cc1ccc(OP(=O)(Nc2nccs2)Oc2ccc(C)cc2)cc1`: the activation (protection from cell death) was inactive: -0.911%.
The same measure for `COc1ccccc1OP(=O)(Nc1ccc(C)cn1)Oc1ccccc1OC`: inactive: 0.599%.
Under `CN1CCCC(OC(=O)C(c2ccccc2)c2ccccc2)C1` (stereo not drawn) stands inactive: -0.835%; under `Clc1ccc(Cl)c(NC2=NCC(CBr)S2)c1` (stereo not drawn), inactive: -2.4%.
Under `NC(=O)c1cc([N+](=O)[O-])cc([N+](=O)[O-])c1N` stands inactive: 0.154%; under `Cc1ccc(N/C(=N/P(=O)(N2CCOCC2)N2CCOCC2)N2CCOCC2)cc1`, inactive: -0.594%; under `Nc1cc(N)c2nonc2c1[N+](=O)[O-]`, inactive: -0.0135%.
As to `CC(C)CC(=O)NC(Sc1ccc(Cl)cc1)C(Cl)(Cl)Cl` (stereo not drawn), the activation (protection from cell death) is inactive: -2.14%.
In the case of `O=C(NC(Sc1ccncn1)C(Cl)(Cl)Cl)c1ccccc1` (stereo not drawn), the activation (protection from cell death) is inactive: 0.818%.
Regarding `Cc1c2non([O-])c-2c(C)[n+](=O)[n+]1[O-]`, the activation (protection from cell death) is inactive: -11.7%.
For `Oc1ccccc1CNc1ccccn1`, the activation (protection from cell death) is inactive: 9.09%.
In the case of `Cc1ccc(NP(=O)(Oc2ccccc2F)Oc2ccccc2F)nc1`, the activation (protection from cell death) was inactive: 0.627%.
Under `Cc1cc(SC(NC(=O)c2ccc(F)cc2)C(Cl)(Cl)Cl)ncn1` (stereo not drawn) stands inactive: 2.41%.
